Apparent affinities of Ab-95 variants for a coronavirus HR2 peptide

Values reported by Engelhart et al. 2022, doi:10.1038/s41597-022-01779-4 (FLAb copy).

Target peptide (SARS-CoV-2 spike, HR2 region): PDVDLGDISGINAS

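In library AAYL52, one, two or three CDR residues were substituted; doubles and triples were drawn at random. In AlphaSeq, yeast of one mating type display the scFv and yeast of the other type display the target. Pairs that bind mate more often; barcode pairs of the diploids are counted by sequencing. Each replicate has its own calibration line, from reference interactions of the BCL2 family. There are three technical replicates.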

The variants keep the heavy chain, the linker and the frameworks of Ab-95 (scFv order VH, a 15-residue (Gly4Ser)3 linker, VL).
VH: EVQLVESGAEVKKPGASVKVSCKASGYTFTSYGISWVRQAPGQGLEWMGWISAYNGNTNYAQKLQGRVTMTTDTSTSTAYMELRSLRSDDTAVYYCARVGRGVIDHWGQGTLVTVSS
VL: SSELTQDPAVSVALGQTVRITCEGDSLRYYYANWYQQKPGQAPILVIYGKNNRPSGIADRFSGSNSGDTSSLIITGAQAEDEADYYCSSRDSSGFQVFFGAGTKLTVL

Each variant is given by its three light chain CDRs, as the data file delimits them; those of the parent are EGDSLRYYYAN, GKNNRPS, SSRDSSGFQVF. Every variant below is changed at S88 of the VL (sequential numbering). Affinities are written as log10 Kd with Kd in nM; a lower number is a better binder. Averages over replicates are reported, and they cover detected replicates only. A pair that was not seen in that replicate is written "nd"; this usually means weak binding, but a binder can also be missed. Order: sorted from the lowest average up, undetected variants last. Nonspecific signal, from three strains lacking the peptide, appeared in 28% of pairings of library AAYL52, centred on 3.91 (5% of these signals below 2.90); values are not corrected for it. In this assay the parent's reference entry averaged 2.31; its copy inside this library read 2.25.

- EGDSLRRYEAN | GKNNRPS | ASRDSSGFQVF: 1.51, 1.75, 1.07 (mean 1.44)
- EGDSLRYYYAN | GKNNRPS | MSRDSSGFQVF: 1.93, 1.76, 1.50 (mean 1.73)
- EGDSLCYYYAN | GKNNRPS | ESRDSSGFQVF: 2.13, 1.99, 1.31 (mean 1.81)
- EGDSLRYYYAN | GKNNRPS | QSRDSPGFQVF: 1.85, 2.23, 1.85 (mean 1.98)
- EGDSLRYYYAN | GKNNRPS | ASGDSSGFDVF: 2.03, 1.56, 2.42 (mean 2.00)
- EGDSLRYYYAN | GKNNREE | ASRDSSGFQVF: 2.52, 2.64, 1.95 (mean 2.37)
- EGDSLRYYYAN | GKNNRPS | QSRDSSGFQVF: 2.64, 2.47, 2.19 (mean 2.43)
- EGDSLRYYYAN | GKNMRPS | FVRDSSGFQVF: 3.03, 2.61, 2.10 (mean 2.58)
- EYDSLRYYYAN | GKQNRPS | ISRDSSGFQVF: 2.75, 2.26, 2.81 (mean 2.61)
- EGDSLRYIYAN | GKNNRPS | ISRWSSGFQVF: 2.70, nd, 2.67 (mean 2.69)
- EGDSLRYYYAN | GKNNRPS | FSRDKSGFQVY: 2.80, 2.79, 2.86 (mean 2.82)
- EGDWLRYYYAN | GKDNRPS | MSRDSSGFQVF: 2.85, 3.30, 2.67 (mean 2.94)
- EKDSLFYYYAN | GKNNRPS | MSRDSSGFQVF: 2.92, 2.98, nd (mean 2.95)
- EGDSLRCYYAN | GKNNRPM | MSRDSSGFQVF: 3.50, 3.00, 2.81 (mean 3.10)
- EGNSLRYYYAN | GKNNRAS | KSRDSSGFQVF: 3.28, 2.85, 3.21 (mean 3.11)
- EGDSLRYYYAN | GKNNRPS | ESRDESGFQFF: 3.78, 3.58, 3.25 (mean 3.54)
- EGDSLGYYYAN | GKNNRPS | ASRTSSGFQVF: 2.84, 3.57, 4.30 (mean 3.57)
- EGDSLRYYYAN | GKNNRPS | NSRDSYGKQVF: 4.18, 3.54, 3.00 (mean 3.57)
- EGDSLRTYYKN | GKNNRPS | NSRDSSGFQVF: 3.44, nd, 3.79 (mean 3.61)
- EGDWMRYYYAN | GKNNRPS | QSRDSSGFQVF: 3.29, 3.65, 4.03 (mean 3.65)
- EGDSLEYYYAN | GKNNRPS | MSDDSSGFQVF: 4.46, 3.22, nd (mean 3.84)
- EGDSHRYYYAN | GKNNRPS | VSRDKSGFQVF: nd, 4.18, 3.55 (mean 3.86)
- EGDSLRYYYAN | GKNNRPS | TSRDSSGYDVF: 4.68, nd, 3.13 (mean 3.91)
- EGDSLRYYYIN | TKNNRPS | LSRDSSGFQVF: nd, 4.04, nd
- EGDSLRYYYMN | GKNNRPS | QSRDSSGFQVK: 4.12, nd, nd
- EGDSSRYYYAN | TKNNRPS | VSRDSSGFQVF: 3.92, 4.38, nd (mean 4.15)
- EGDSLRYYYAN | GKNNLPS | ISRDSSGFQVF: 3.94, 4.60, 4.19 (mean 4.24)
- EGDSLRYYYAN | IKNNRPS | TFRDSSGFQVF: 4.28, nd, nd
- EGDSLRYYYAN | GKNNTPS | YSRESSGFQVF: nd, 4.63, 4.03 (mean 4.33)
- EGDSLRYYYAN | GKNNRPS | DSRDSSHFQIF: 4.01, 4.31, 4.84 (mean 4.39)
- EGDSLRYPYAN | GSNNRPS | WSRDSSGFQVF: 4.39, 5.77, 3.65 (mean 4.60)
- EGDSLRYYYAN | GKNNRLS | ISRDSPGFQVF: 3.75, 5.47, nd (mean 4.61)
- EGHSLRYYYAN | GPNNRPS | KSRDSSGFQVF: 5.09, 4.43, nd (mean 4.76)
- EGDSLRYYYAE | GKNLRPS | NSRDSSGFQVF: 4.40, 5.38, nd (mean 4.89)
- PGDSLRYYYAN | VKNNRPS | ESRDSSGFQVF: 4.91, nd, nd
- EGDSLRYYYAN | MKNNRPS | ASRDSSGFQAF: nd, nd, nd
- EGDSLRYYYAG | TKNNRPS | FSRDSSGFQVF: nd, nd, nd
- EGDSLRYYYAL | GVNNRPS | YSRDSSGFQVF: nd, nd, nd

A selection of 3 entries from above:

{"CDR-L1": "EGDSLRYYYAN", "CDR-L2": "GKNNRPS", "CDR-L3": "ASGDSSGFDVF", "log10 Kd, replicates": "2.03, 1.56, 2.42", "mean log10 Kd (nM)": "2.00"}
{"CDR-L1": "EGNSLRYYYAN", "CDR-L2": "GKNNRAS", "CDR-L3": "KSRDSSGFQVF", "log10 Kd, replicates": "3.28, 2.85, 3.21", "mean log10 Kd (nM)": "3.11"}
{"CDR-L1": "EGDSLGYYYAN", "CDR-L2": "GKNNRPS", "CDR-L3": "ASRTSSGFQVF", "log10 Kd, replicates": "2.84, 3.57, 4.30", "mean log10 Kd (nM)": "3.57"}